Patent publication US9493474B2, “Inhibitors of the renal outer medullary potassium channel” (Merck Sharp & Dohme Corp., priority 2011, dated 2016)

Amino acid sequences for entries named in this document (tags omitted).
UniProt P48048, whole entry, species assumed: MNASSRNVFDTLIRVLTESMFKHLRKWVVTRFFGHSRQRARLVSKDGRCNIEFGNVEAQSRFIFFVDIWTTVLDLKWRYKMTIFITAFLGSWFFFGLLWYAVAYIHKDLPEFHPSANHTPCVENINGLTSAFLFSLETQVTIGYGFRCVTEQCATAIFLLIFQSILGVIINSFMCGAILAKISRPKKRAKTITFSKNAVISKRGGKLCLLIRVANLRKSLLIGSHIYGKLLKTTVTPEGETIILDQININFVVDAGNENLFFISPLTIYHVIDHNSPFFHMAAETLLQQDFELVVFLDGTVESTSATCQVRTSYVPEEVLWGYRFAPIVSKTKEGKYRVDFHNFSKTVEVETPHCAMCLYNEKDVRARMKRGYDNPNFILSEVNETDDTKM

Molecular target: Kir1.1 (ROMK1) (Homo sapiens (Human), UniProt P48048)
Assay: Electrophysiology Assay (whole cell voltage clamp, IonWorks Quattro)
Format: cell-based
Conditions: Chinese hamster ovary cells stably expressing Kir1.1; block at voltage step to 0 mV, 6 minutes compound incubation; read-out: EP Assay IC50
Description: Several assays may be used to measure functional inhibition of the ROMK channel by compounds of the instant invention. One assay that can be used is an electrophysiology assay that measures the electrical current that is generated as potassium permeates through the channel. Another ROMK functional assay makes use of the ability of thallium to permeate through open ROMK channels and increase the fluorescence of a dye previously loaded into the cells. Under control conditions, cells loaded with dye and exposed to thallium-containing medium display a time-dependent increase in fluorescence, the rate of which depends on number of functional channels. When cells are incubated in the presence of a channel inhibitor, the increase in fluorescence is attenuated in a concentration-dependent manner, and IC50 values of inhibition by compounds can be accurately determined. This assay has been established with cell lines expressing either human, or rat ROMK channels, and operates in 384-well format. […]
Voltage protocols and current recordings were performed using the IonWorks® HT software/hardware system. […] Current amplitudes were measured using the IonWorks® software. To assess compound potency, the fractional block during the voltage step to 0 mV was calculated in Microsoft® Excel (Microsoft, Redmond, Calif.), and dose-response curves were fitted with Igor Pro 4.0 (WaveMetrics, Lake Oswego, Oreg.). […]

IC50 [nM] | SMILES
120 | Cc1c([C@@H](O)CN2CC3CCN(C[C@H](O)c4ccc5c(c4C)COC5=O)C3C2)ccc2c1COC2=O (single isomer, unassigned) [Example 4A]
117 | Cc1c([C@@H](O)CN2CC3CCN(C[C@H](O)c4ccc5c(c4C)COC5=O)C3C2)ccc2c1COC2=O (single isomer, unassigned) [Example 4B]
